Test results published in PubChem BioAssay AID522 (The Scripps Research Institute Molecular Screening Center, 2006).
The list shows a part of the results, in another mix than the full data. Some of these compounds have results that are not shown, active ones among them. The source made the active and inactive calls.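 How the source made its calls: active means activation above the mean activation of all tested compounds plus 3 SD (cut at about 50% in these data); inactive means the rest.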

By UniProt entry, the sequences of proteins in these tests, tags left out.
UniProt Q13285, whole entry: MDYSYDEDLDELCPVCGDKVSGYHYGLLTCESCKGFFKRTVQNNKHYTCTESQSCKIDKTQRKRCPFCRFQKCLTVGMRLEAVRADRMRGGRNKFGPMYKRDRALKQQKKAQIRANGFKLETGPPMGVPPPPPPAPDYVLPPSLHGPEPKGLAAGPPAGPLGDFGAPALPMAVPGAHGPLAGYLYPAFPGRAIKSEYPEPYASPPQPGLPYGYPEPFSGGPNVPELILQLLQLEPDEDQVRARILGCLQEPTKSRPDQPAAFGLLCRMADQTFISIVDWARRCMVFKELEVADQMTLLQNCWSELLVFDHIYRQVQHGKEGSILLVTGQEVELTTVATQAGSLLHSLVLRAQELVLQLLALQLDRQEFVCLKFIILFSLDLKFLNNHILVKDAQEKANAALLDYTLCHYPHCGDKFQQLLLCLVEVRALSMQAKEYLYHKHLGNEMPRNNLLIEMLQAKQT

The compounds below were run against Steroidogenic factor 1 (Homo sapiens) (UniProt Q13285) (assay: activators of human SF-1, primary screen, cell-based, CHO-K1, Gal4-SF-1 LBD, luciferase luminescence (AID 522)). Conditions: CHO-K1 Gal4-SF-1 LBD luciferase reporter; at 10 µM; hits give high values; % increase over DMSO SF-1-specific signal.
Summary of the method: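 Assay system: CHO-K1 cells co-transfected with Gal4 DBD–human SF-1 LBD, 5xGal4 luciferase reporter / Input: 4,000 cells per well / Incubation: 20 h compound exposure at 37 °C after 1 h cell settling / Detection: SteadyLite luciferase luminescence / Control set: DMSO negative control and −SF1 background wells / Replication: one test per compound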

Structure (SMILES) | activation
CN(C)c1cccc(C(=O)NCC2(N(C)C)CCCCC2)c1 | inactive: 0.4%
O=C(OC1CN2CCC1CC2)C(CO)(c1ccccc1)c1ccccc1 (configuration not stated) | inactive: 4.9%
